Measured values published in BindingDB's records for doi:10.1016/s0028-3908(97)00161-5 (University of Bristol, 1997).

Sequences of proteins named here, by UniProt entry; tags and fusion partners are left off.
UniProt G1SXH9, whole entry: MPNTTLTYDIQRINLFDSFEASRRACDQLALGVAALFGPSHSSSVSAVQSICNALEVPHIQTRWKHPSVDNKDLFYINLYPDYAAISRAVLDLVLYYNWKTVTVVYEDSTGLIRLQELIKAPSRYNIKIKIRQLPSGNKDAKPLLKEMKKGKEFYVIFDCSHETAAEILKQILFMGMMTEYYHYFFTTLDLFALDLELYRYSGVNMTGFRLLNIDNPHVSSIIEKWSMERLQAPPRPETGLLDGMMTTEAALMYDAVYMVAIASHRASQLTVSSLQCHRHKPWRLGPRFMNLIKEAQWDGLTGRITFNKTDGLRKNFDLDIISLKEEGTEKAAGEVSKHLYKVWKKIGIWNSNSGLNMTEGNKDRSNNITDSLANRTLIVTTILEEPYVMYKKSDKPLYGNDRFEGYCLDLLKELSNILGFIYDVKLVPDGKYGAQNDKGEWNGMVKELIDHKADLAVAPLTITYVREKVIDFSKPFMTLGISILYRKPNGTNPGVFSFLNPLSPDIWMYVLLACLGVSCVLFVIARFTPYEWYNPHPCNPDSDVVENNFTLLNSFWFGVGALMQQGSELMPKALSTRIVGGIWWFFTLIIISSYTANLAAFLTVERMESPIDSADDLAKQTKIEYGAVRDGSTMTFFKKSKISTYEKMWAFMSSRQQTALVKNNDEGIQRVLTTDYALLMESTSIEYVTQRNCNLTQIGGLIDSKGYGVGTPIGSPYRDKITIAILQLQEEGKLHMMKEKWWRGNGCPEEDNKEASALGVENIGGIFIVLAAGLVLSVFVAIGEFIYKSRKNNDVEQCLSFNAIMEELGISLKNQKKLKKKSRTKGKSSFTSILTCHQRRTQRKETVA

Target: Glutamate receptor (Oryctolagus cuniculus, UniProt G1SXH9)

## NC(CCC(=O)O)C(=O)O (stereo unspecified) [glutamic acid dianion]
  Ki: 0.0311 µM
